{
  "sequences": {"note": "Protein sequences, listed by entry. Tags and fused reporters are not part of them.", "UniProt P18825, whole entry": "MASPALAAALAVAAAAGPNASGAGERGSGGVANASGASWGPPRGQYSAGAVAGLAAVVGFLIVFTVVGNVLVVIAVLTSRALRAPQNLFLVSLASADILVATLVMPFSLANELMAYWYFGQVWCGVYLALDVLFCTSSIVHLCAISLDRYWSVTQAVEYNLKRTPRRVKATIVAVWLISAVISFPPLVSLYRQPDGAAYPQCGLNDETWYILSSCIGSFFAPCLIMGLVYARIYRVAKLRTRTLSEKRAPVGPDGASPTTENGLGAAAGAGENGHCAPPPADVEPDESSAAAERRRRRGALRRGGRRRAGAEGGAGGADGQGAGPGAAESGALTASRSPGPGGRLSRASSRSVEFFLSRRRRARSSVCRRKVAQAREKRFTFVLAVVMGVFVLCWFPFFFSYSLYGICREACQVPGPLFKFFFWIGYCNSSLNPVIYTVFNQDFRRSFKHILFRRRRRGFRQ"},
  "source": "patent US10323020B2",
  "about": "“Substituted piperidinyl tetrahydroquinolines” (Bayer Pharma Aktiengesellschaft, priority 2013, dated 2019)",
  "biological_target": "recombinant human α2C receptor (Homo sapiens (Human), UniProt P18825)",
  "assay": "Antagonism against the adrenoreceptor α2C (luminescence, noradrenaline-stimulated CHO cells)",
  "details": "read-out: IC50 antagonism against the adrenoreceptor α2C; noradrenaline 20 nM; CHO cell line with Gαqi3 and mtOb",
  "experimental": "Antagonism against the adrenoreceptor α1A was tested using a recombinant human α1A receptor CHO cell line which additionally also recombinantly expresses mtAeq (mitochondrial aequorin). Antagonism against the adrenoreceptor α2A was tested using a recombinant human α2A-Gα16 receptor fusion protein CHO cell line (PerkinElmer Life Sciences) which additionally also recombinantly expresses mtAeq. Antagonism against the adrenoreceptor α2B was tested using a recombinant human α2B receptor CHO cell line (PerkinElmer Life Sciences) which additionally also recombinantly expresses mtAeq. Antagonism against the adrenoreceptor α2C was tested using a recombinant human α2C receptor CHO cell line which additionally also recombinantly expresses a chimaric G protein (Gαqi3) and mtOb (mitochondrial obelin). […]\nLuminescence measurements were carried out on white 384-well microtitre plates. […] After 5 minutes, noradrenaline was added to the cells (35 μl; final concentrations: 20 nM (α1a/c and α2C) or 200 nM (α2A and α2B)), and the emitted light was measured for 50 seconds using a CCD (charge-coupled device) camera (Hamamatsu Corporation, Shizuoka, Japan) in a light-tight box. […] The IC50 values were calculated from the appropriate dose-response curves.",
  "data": [
    {"compound": "CCC(COC)Nc1ncc(C(=O)N2CCC(N3CCc4cc(F)ccc4C3)CC2)cn1", "note": "(stereo not shown)", "values": [
      {"measurement": "IC50", "value": 24, "unit": "nM"}
    ]}
  ]
}
